The structures appear in SMILES notation.

The chains behind the UniProt entries cited, without tags or fusion partners. Residues count along the entry.
UniProt P01116, 1-188 isoform 2 G12D limits assumed: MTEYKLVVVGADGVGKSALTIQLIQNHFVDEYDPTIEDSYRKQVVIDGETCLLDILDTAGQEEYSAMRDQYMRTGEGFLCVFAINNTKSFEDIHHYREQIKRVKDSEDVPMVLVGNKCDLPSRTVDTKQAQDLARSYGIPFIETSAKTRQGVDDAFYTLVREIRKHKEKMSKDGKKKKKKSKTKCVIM

The target in the assay is His-tagged Human KRAS^G12D (Homo sapiens (Human), UniProt P01116, G12D). Briefly: HTRF KRAS G12D GTP binding assay. The note with it: read-out: IC50 for binding to KRAS^G12D, displacement of GTP-Red tracer.

On to `C#Cc1c(F)ccc2cc(O)cc(-c3ncc4c(N5CCC=CCC5)nc(OCC5(CN(C)C)CC5)nc4c3F)c12`, for which the concentration for half-maximal inhibition (IC50) was more than 1 µM.

Regarding `CN(C)CC1(COc2nc(N3CCC[C@@](C)(O)C3)c3cnc(-c4cc(N)cc(Cl)c4C(F)(F)F)c(F)c3n2)CC1`, the IC50 was 0.385 µM.

The IC50 is the midpoint of a concentration-inhibition curve.

The values above are taken from patent US20240239813A1, “KRAS INHIBITORS AND PHARMACEUTICAL USES THEREOF” (RISEN (SUZHOU) PHARMA TECH CO., LTD., priority 2022, published 2024).
